In patent US20240390315A1, “NUTRITIONAL COMPOSITIONS” (MITOCHOLINE Ltd, priority 2021, published 2024):

dicholine succinate [DiSu]
absorption kinetic of choline and kinetic of transformation of choline to betaine (compared with choline chloride and choline bitartrate): better values
AUC (0-6 h) of betaine concentrations (plasma, healthy adult males, single oral beverage supplying 550 mg choline, after overnight fasting, ranking among the three supplements): highest
